From patent US20260041653A1, “AN HDAC INHIBITOR FOR TREATING CANCER WITH A MODIFIED STK11 ACTIVITY OR EXPRESSION” (Tango Therapeutics, Inc., priority 2022, published 2026)

System: T1, CoREST complex
T1 construct: rows headed: IC50 CoREST; other: complex co-immunoprecipitated from A549 cells; unit not given
Assay: Fluorescence-based deacetylase assay of cell-derived HDAC complex, CoREST
Format: biochemical
Settings: complex co-immunoprecipitated from A549 cells; unit inferred

- IC50: 61 nM
Structure (SMILES): O=C(CCCCCCC(=O)Nc1ccccc1)NO [Vorinostat, reference compound]
